Results on 59 molecules are retold here after PubChem BioAssay AID463165 (Johns Hopkins Ion Channel Center, 2010).

Chains of the proteins cited; added tags and fusions are not shown.
UniProt P49798, whole entry: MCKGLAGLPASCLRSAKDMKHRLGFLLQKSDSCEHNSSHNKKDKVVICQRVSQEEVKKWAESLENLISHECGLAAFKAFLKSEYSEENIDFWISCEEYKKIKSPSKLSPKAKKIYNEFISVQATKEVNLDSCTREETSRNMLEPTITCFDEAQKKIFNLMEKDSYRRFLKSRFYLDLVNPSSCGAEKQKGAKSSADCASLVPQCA

Only a part is listed here, and it is no random draw. Calls of active or inactive are those of the source.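 How the source made its calls: active means B-score, a plate-corrected calcium signal, over three deviations above library mean, with baseline fluorescence within five deviations of library mean; inactive means the rest.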

The experiment addresses Regulator of G-protein signaling 4 (Homo sapiens) (UniProt P49798). Kind of experiment: RGS4 inhibitors, primary screen, cell-based, HEK293 M3R inducible RGS4, calcium flux (AID 463165).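 Further: RGS4 expression induced by doxycycline in cells with stable M3 receptor.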 To be noted: Fluo-4 calcium flux, at 10 µM, triggered by carbachol at its EC20. On the technique in general: Calcium flux is commonly read through the fluorescence of an indicator in the cells.
Take `Fc1ccccc1NC1CCN(Cc2ccccc2)CC1`: the result was inactive.

As for `Cc1ccc(C(=O)NCC2(N3CCCCC3)CCCCC2)o1`, the result was inactive.

On to `COc1cc(OC)cc(C(=O)NCC2(N3CCCCC3)CCCCC2)c1`, for which the outcome was inactive.

`CN(C)c1ccc(C(=O)NCC2(N3CCCCC3)CCCCC2)cc1`: the outcome was inactive.

Take `CCN1CCC(Nc2cccc(F)c2)CC1`: the outcome was inactive.

For `O=C(O)C1(Nc2ccccc2)CCN(Cc2ccccc2)CC1`, the outcome was inactive.

Consider `CC(C)(C)OC(=O)N1CCC(Nc2ccccc2)CC1`, for which the result was inactive.

Turning to `CCCOc1ccc(C(=O)NCC2(N(C)C)CCCCC2)cc1`, the result was inactive.

On to `CN1CCC(Nc2ccc(F)c(Cl)c2)CC1`, for which the result was inactive.

Turning to `CCOc1ncccc1C(=O)NCC1(N2CCOCC2)CCCCC1`, the result was inactive.

Regarding `CN1CCC(Nc2ccc(Cl)cc2)CC1`, the outcome was inactive.

As for `CCCOc1ccc(C)cc1CN(CCCl)CCCl`, the result was inactive.

As for `COc1cccc(C(=O)N(c2cc(C)cc(C)c2)C2CCN(C(=O)OC(C)(C)C)CC2)c1`, the result was inactive.

Turning to `COc1cc(OC)cc(C(=O)NCC2(N3CCOCC3)CCCCC2)c1`, the outcome was inactive.

In the case of `CCC(CO)(C(=O)OC1CN2CCC1CC2)c1ccccc1` (centres undefined), the result was inactive.

In the case of `COc1ccc(C(=O)NCC2(N3CCOCC3)CCCCC2)cc1OC`, the outcome was inactive.

For the molecule `O=C(OC1CN2CCC1CC2)C1c2ccccc2C=Cc2ccccc21` (centres undefined), the outcome was inactive.

For the molecule `CCc1cc(C(=O)NCC2(N3CCCCC3)CCCCC2)sc1C`, the outcome was inactive.

Regarding `CCOC(=O)N1CCC(Nc2ccc(C)cc2)CC1`, the result was inactive.

For the molecule `N/C(=N\O)c1c(N)no[n+]1[O-]`, the outcome was inactive.

As to `N#Cc1ccc(C(=O)NCC2(N3CCCCC3)CCCCC2)cc1`, the result was inactive.

As for `CC(C)(C)OC(=O)N1CCC(N(C(=O)c2ccccc2)c2ccc(Cl)cc2)CC1`, the outcome was inactive.

For the molecule `CN(C)C1(CNC(=O)c2cccc(C#N)c2)CCCCC1`, the outcome was inactive.

Turning to `CCCN1CCC(Nc2cc(OC)cc(OC)c2)CC1`, the result was inactive.

Turning to `c1ccc(CN2CCC(Nc3ccccc3)CC2)cc1`, the outcome was inactive.

`N#CC1(Nc2ccccc2)CCN(CCc2ccccc2)CC1`: the outcome was inactive.

As for `CCN1CCC(Nc2ccc(Cl)cc2)CC1`, the outcome was inactive.

`O=C(NCC1(N2CCCCC2)CCCCC1)c1cccc([N+](=O)[O-])c1`: the result was inactive.

Take `O=C(NCC1(N2CCCCC2)CCCCC1)c1ccc(OC(F)F)cc1`: the result was inactive.

Consider `O=C(NCC1(N2CCOCC2)CCCCC1)c1cc(=O)[nH]c2ccccc12`, for which the result was inactive.

On to `COc1cc(C(=O)NCC2(N3CCCCC3)CCCCC2)ccc1OC(F)F`, for which the result was inactive.

For the molecule `COc1ccc(NC2CCN(C(=O)OC(C)(C)C)CC2)cc1`, the outcome was inactive.

As to `CN1CCN(CCOC(=O)C(O)(c2ccccc2)c2ccccc2)CC1`, the outcome was inactive.

`O=C(NCC1(N2CCCCC2)CCCCC1)c1cccc(C(F)(F)F)c1`: the outcome was inactive.

As for `COc1cc(OC)c(C(=O)NCC2(N(C)C)CCCCC2)cc1OC`, the result was inactive.

In the case of `CC(C)c1ccc(NC2CCN(C(=O)OC(C)(C)C)CC2)cc1`, the result was inactive.

With `CN(C)c1cccc(C(=O)NCC2(N3CCCCC3)CCCCC2)c1`, the result was inactive.

Take `COc1ccc(CN(CCCl)CCCl)cc1Cl`: the outcome was inactive.

Regarding `CCCOc1ccc(C(=O)NCC2(N(C)C)CCCCC2)cc1OC`, the outcome was inactive.

For the molecule `CN1CCC(Nc2cccc(F)c2)CC1`, the outcome was inactive.

In the case of `CSc1ccccc1C(=O)NCC1(N2CCCCC2)CCCCC1`, the outcome was inactive.

Take `COc1ccc(C(=O)NCC2(N3CCCCC3)CCCCC2)c(OC)c1OC`: the outcome was inactive.

As for `CC(C)(C)OC(=O)N1CCC(N(C(=O)c2ccccc2)c2ccc(F)cc2)CC1`, the result was inactive.

Consider `COc1ccc(C(=O)NCC2(N3CCCCC3)CCCCC2)cc1`, for which the outcome was inactive.

Consider `O=C(NCC1(N2CCCCC2)CCCCC1)c1cccs1`, for which the outcome was inactive.

Take `O=C(NCC1(N2CCCCC2)CCCCC1)c1ccc(=O)[nH]c1`: the outcome was inactive.

Take `O=C(OC1CN2CCC1CC2)C1c2ccccc2Oc2ccccc21` (centres undefined): the result was inactive.

As for `N#CC1(Nc2ccccc2)CCN(Cc2ccccc2)CC1`, the result was inactive.

For `CCOC(=O)N1CCC(Nc2ccc(OC)cc2)CC1`, the result was inactive.

Consider `Cc1cc(C)cc(N(C(=O)c2ccccc2)C2CCN(C(=O)OC(C)(C)C)CC2)c1`, for which the outcome was inactive.

As to `O=C(NCC1(N2CCCCC2)CCCCC1)c1ccc(Cl)nc1`, the result was inactive.

As to `O=C(NCC1(N2CCOCC2)CCCCC1)c1cc2ccccc2o1`, the outcome was inactive.

With `CCOC(=O)N1CCC(Nc2ccc(F)cc2)CC1`, the outcome was inactive.

With `COc1ccc(NC2CCN(CCc3ccccc3)CC2)c(OC)c1`, the result was inactive.

On to `O=C(NCC1(N2CCCCC2)CCCCC1)c1ccc(F)cc1`, for which the result was inactive.

`CCOc1ccc(C)cc1CN(CCCl)CCCl`: the outcome was inactive.

Take `Cc1ccc(OCC(C)C)c(CN(CCCl)CCCl)c1`: the outcome was inactive.

Take `COc1cc(C(=O)NCC2(N(C)C)CCCCC2)ccc1OC(F)F`: the result was inactive.

For `CCOC(=O)N1CCC(Nc2cccc(C)c2)CC1`, the outcome was inactive.
